From patent US7157430B2, “(Substituted)acyl dipeptidyl inhibitors of the ICE/CED-3 family of cysteine proteases” (Idun Pharmaceuticals, Inc., priority 1998, dated 2007)

By UniProt entry, the sequences of proteins in these tests, tags left out. Residues count along the entry.
UniProt P29452, 123-296 limits assumed: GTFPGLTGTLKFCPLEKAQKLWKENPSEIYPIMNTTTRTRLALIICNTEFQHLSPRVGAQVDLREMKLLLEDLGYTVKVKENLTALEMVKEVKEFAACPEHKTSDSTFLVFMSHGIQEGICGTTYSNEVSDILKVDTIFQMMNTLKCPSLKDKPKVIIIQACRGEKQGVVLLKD
UniProt P29452, 315-402 limits assumed: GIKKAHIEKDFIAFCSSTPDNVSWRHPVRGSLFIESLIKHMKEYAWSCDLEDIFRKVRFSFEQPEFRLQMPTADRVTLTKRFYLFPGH
UniProt P55212, 24-179 limits assumed: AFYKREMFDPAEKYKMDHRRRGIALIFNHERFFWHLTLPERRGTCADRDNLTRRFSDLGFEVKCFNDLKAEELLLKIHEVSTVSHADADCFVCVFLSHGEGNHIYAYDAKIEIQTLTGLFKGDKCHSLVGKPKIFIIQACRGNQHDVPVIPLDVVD
UniProt P55212, 194-293 limits assumed: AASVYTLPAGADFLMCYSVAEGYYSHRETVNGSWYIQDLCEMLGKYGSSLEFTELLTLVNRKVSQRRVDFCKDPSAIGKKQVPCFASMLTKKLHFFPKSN
UniProt P42574, 29-175 limits assumed: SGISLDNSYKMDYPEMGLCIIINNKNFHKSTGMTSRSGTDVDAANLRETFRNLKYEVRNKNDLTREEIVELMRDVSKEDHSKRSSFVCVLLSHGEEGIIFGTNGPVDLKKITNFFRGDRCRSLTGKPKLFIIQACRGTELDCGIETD
UniProt P42574, 176-277 limits assumed: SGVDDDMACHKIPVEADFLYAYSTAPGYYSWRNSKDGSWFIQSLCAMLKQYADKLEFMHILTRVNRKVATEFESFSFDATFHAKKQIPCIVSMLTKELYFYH
UniProt Q14790, 217-374 limits assumed: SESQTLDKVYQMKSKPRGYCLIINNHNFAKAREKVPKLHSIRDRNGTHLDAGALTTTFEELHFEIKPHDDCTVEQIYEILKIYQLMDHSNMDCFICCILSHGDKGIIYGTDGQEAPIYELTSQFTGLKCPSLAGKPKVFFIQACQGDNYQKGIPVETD
UniProt Q14790, 385-479 limits assumed: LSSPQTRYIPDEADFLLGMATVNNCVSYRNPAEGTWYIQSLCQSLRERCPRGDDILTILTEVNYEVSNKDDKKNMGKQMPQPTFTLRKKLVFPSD

Key:
mICE = mICE (Mus musculus, UniProt P29452); test: Dissociation constant Ki and irreversible rate constant k3 for irreversible inhibitors, ICE; conditions: continuous assay 60 min, reaction initiated by adding enzyme; for pKi: read-out: mICE Ki
Description: (§1) For the irreversible inhibition of a ICE/ced-3 Family Protease enzyme with a competitive irreversible inhibitor; using the model represented by the following formulas: […]
(§2) The product formation at time t may be expressed as:
(§3) [formula] where E, I, EI and E-I denote the active enzyme, inhibitor, non-covalent enzyme-inhibitor complex and covalent enzyme-inhibitor adduct, respectively. The Ki value is the overall dissociation constant of the reversible binding steps, and k3 is the irreversible rate constant. The [S] and Ks values are the substate concentration and dissociation constant of the substrate bound to the enzyme, respectively. [E]^T is the total enzyme concentration.
(§4) The above equations were used to determine the Ki and k3 values of a given inhibitor bound to a ICE/ced-3 family protease. Thus, a continuous assay was run for sixty minutes at various concentrations of the inhibitor and the substrate. The assay was formulated essentially the same as described above for generating the data in Table 1, except that the reaction was initiated by adding the enzyme to the substrate-inhibitor mixture. The Ki and k3 values were obtained by simulating the product AMC formation as a function of time according to Equation 1.
(§5) The reference compound for this assay was Cbz-ValAlaAsp-CH2F and the values are denoted in Table 2 as “Reference”. The Ki values in Table 2 are in micromolar (μM). The k3/Ki values are in moles^−1 seconds^−1 (M^−1s^−1).

MCH-2 = MCH-2 (Homo sapiens, UniProt P55212); test: Dissociation constant Ki and irreversible rate constant k3 for irreversible inhibitors, Mch2; conditions: continuous assay 60 min, reaction initiated by adding enzyme; for pKi: read-out: MCH-2 Ki
Description: as §1, §2, §3, §4, §5

CPP32 = CPP32 (Homo sapiens, UniProt P42574); test: Dissociation constant Ki and irreversible rate constant k3 for irreversible inhibitors, CPP32; conditions: continuous assay 60 min, reaction initiated by adding enzyme; for pKi: read-out: CPP32 Ki
Description: as §1, §2, §3, §4, §5

MCH-5 = MCH-5 (Homo sapiens, UniProt Q14790); test: Dissociation constant Ki and irreversible rate constant k3 for irreversible inhibitors, Mch5; conditions: continuous assay 60 min, reaction initiated by adding enzyme; for pKi: read-out: MCH-5 Ki

mICE k3/Ki (mICE)	pKi (mICE)	MCH-2 k3/Ki (MCH-2)	pKi (MCH-2)	CPP32 k3/Ki (CPP32)	pKi (CPP32)	MCH-5 k3/Ki (MCH-5)	pKi (MCH-5)	SMILES
6,320 M^−1s^−1	6.11	7,720 M^−1s^−1	6.65	8,210 M^−1s^−1	5.94	1,260 M^−1s^−1	5.92	O=C(O)CC(NC(=O)[C@H](CC1CCCCC1)NC(=O)CCOc1cccc2ccccc12)C(=O)COc1c(F)c(F)cc(F)c1F (stereo partly shown)
4,000 M^−1s^−1	5.63	20,600 M^−1s^−1	6.83	10,900 M^−1s^−1	5.96	4,090 M^−1s^−1	6.42	O=C(O)CC(NC(=O)[C@H](CC1CCCCC1)NC(=O)COc1ccccc1-c1ccccc1)C(=O)COc1c(F)c(F)cc(F)c1F (stereo partly shown)

pKi: −log10 of the molar value.
